Data on 2 compounds can be found in PMC4543428 (European journal of pharmacology, 2015).

By UniProt entry, the sequences of proteins in these tests, tags left out.
UniProt O55242, whole entry: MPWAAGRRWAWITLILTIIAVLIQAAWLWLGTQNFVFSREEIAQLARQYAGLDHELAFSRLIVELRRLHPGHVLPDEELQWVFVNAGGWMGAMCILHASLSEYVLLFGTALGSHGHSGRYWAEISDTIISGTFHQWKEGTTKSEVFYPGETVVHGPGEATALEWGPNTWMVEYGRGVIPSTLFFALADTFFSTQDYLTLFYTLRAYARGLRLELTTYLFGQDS

Like-named read-outs stand apart in the source and are kept apart here.

Experiment [1] addresses T1, sigma1 receptor (Mus musculus, UniProt O55242). Nature of the experiment: biochemical.
Experiment [2] concerns the target T1, sigma1 receptor. The conditions noted are these: 1.0 nM [3H](+)-pentazocine; 6 h; 37 °C; mouse lung membranes.
Experiment [3] concerns the target T1, sigma1 receptor.

Compound `CC(C)=CCN1CC[C@]2(C)c3cc(O)ccc3C[C@H]1[C@H]2C` [(+)-Pentazocine, (+)-pentazocine] came in with a Ki in experiment [1] of 1.3 ± 0.05 nM. Also, the “Sigma1 nH (pseudo-Hill slope)” value in experiment [2] amounted to 1.07 ± 0.13.
Take `CC(C)=CCN1CC[C@]2(C)c3cc(O)ccc3C[C@H]1[C@H]2C` [[^3H](+)-pentazocine]: the “specific radioligand binding as share of total binding” value in experiment [3] (0.7 nM, 6 – 8 h, 1.0 µM haloperidol non-specific) turned out to be 87%. Also, the “time to steady state of specific binding” value is on record as not above 6 h in experiment [3] (37 °C, 0.7 nM) and not above 5 h in experiment [3] (37 °C, 3.0 nM). The “Bmax, saturation binding, first set” value in experiment [3] (6 h, 37 °C, n = 4, mean ± S.E.M.) was 951 ± 18 fmol / mg protein. In addition, the “Bmax, saturation binding, pooled data” value in experiment [3] (6 h, 37 °C, n = 8) was 967 ± 11 fmol / mg protein. In experiment [3] (read-out: Kd, saturation binding, pooled data, 6 h, 37 °C, n = 8), the Kd is 1.36 ± 0.04 nM.

Broadly, the Ki is a measure of affinity in units of concentration, obtained from inhibition or displacement.
